Results on one compound are retold here after publication PMC11121358, “Redox Properties of Bacillus subtilis Ferredoxin:NADP^+ Oxidoreductase: Potentiometric Characteristics and Reactions with Pro-Oxidant Xenobiotics” (International Journal of Molecular Sciences, 2024).

Protein sequences, listed by entry. Tags and fused reporters are not part of them. Lines headed by an entry give the natural chain unless they say otherwise; changes in a name come on top.
UniProt O05268: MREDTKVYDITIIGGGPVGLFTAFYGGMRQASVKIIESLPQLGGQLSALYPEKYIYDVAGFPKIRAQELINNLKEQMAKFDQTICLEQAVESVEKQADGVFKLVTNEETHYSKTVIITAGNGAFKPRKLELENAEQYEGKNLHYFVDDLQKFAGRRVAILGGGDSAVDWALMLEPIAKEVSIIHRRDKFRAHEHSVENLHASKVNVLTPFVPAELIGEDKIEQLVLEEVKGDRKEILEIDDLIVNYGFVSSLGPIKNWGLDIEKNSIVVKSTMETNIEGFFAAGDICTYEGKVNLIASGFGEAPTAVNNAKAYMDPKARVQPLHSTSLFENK

In the assay the target is T1, Bacillus subtilis ferredoxin:NADP^+ oxidoreductase (BsFNR) (Bacillus subtilis, UniProt O05268).
T1 construct: gene yumC

Regarding `Cc1cc2nc3c(=O)[nH]c(=O)nc-3n(C[C@H](O)[C@H](O)[C@H](O)COP(=O)(O)OP(=O)(O)OC[C@H]3O[C@@H](n4cnc5c(N)ncnc54)[C@H](O)[C@@H]3O)c2cc1C` [FAD], the “photoreduction and stopped-flow absorbance spectra of enzyme-bound FAD” value is “spectral changes of the enzyme-bound FAD during the multiple turnovers”.
